This data set is described as follows: Identification of components and metabolites of YCHD in rat plasma, bile, urine and feces (UHPLC/Q-TOF-MS). It is filed as in vivo. The note with it: rats, oral YCHD 12 g/kg, urine, feces. The method, then:
After centrifuging at 4000 rpm for 10 min, supernatant plasma was harvested into heparinized tubes and then stored at -20°C for preservation. The rats in the second group (n = 6) were kept individually in metabolic cages to collect urine and feces. […] Subsequently, the rats were orally administered a single dose of YCHD (12 g/kg of body weight). […] For the third group of rats (n = 6), bile duct intubation was implemented, and blank bile samples were collected before administration. After the administration of YCHD at 12 g/kg of body weight, the drug-containing bile samples were collected.
Plasma, bile, and urine samples (200 μL each) were separately precipitated with six times of methanol–acetonitrile mixed solution (v/v, 1:1; containing 1% formic acid). After being vortex mixed for 5 min and centrifuged at 15,000 rpm for 5 min at 4°C, the supernatant was separated into another clean tube and dried under a gentle stream of nitrogen at 45°C. Subsequently, the residue was reconstituted in 100 μL of 50% methanol–water (v/v) and then vortex mixed for 10 min. After another round of centrifugation at 15,000 rpm for 5 min at 4°C, 5 μL of the supernatant was analyzed by UHPLC-MS/MS. A 0.5 g sample of naturally dried feces was supplemented with 2 mL of 80% methanol–water (v/v) and then ultrasonically extracted for 30 min at 4°C. After being centrifuged at 15,000 rpm for 10 min, the supernatant was dried under a gentle stream of nitrogen at 45°C. Finally, the residue was reconstituted in 1 mL of 50% methanol–water (v/v) and then vortex mixed for 10 min. After another round of centrifugation at 15,000 rpm for 5 min at 4°C, 5 μL of the supernatant sample was injected into the UHPLC-MS/MS system for analysis.
Separations were conducted on an Agilent SB-C18 column (2.1 mm × 50 mm, 1.8 μm) of a UHPLC/Q-TOF-MS system (Waters, Corp., Milford, MA, United States) maintained at 40°C.
A Synapt G2 quadrupole time-of-flight (Q/TOF) MS/MS system (Waters, Corp., Manchester, United Kingdom) equipped with an electrospray ionization (ESI) interface was operated in negative ionization mode and controlled by MassLynx software (Version 4.1). The optimized conditions for maximum detection of metabolites were as follows: the capillary voltage was set at 3.0 kV, extraction cone voltage was set at 10 and 15 V, source temperature was maintained at 120°C, and desolvation temperature was maintained at 450°C. […] An MS^E approach using a dynamic ramp of collision energy was also applied at two (low and high collision energies) scan functions. […]

This is an account of results in publication PMC5962729, “Yinchenhao Decoction Ameliorates Alpha-Naphthylisothiocyanate Induced Intrahepatic Cholestasis in Rats by Regulating Phase II Metabolic Enzymes and Transporters” (Frontiers in Pharmacology, 2018).

Consider Caffeic acid-O-SO3 [M4], for which the “Source (biological samples in which the compound was identified)” value is listed as “Urine, feces”.

Regarding Caffeic acid-O-gluA [M5], the “Source (biological samples in which the compound was identified)” value is given as “Plasma, bile, urine”.

As to Emodin-O-gluA [M8], the “Source (biological samples in which the compound was identified)” value is “Plasma, bile, urine, feces”.

As to Rhein-O-gluA [M1], the “Source (biological samples in which the compound was identified)” value is recorded as “Urine”.
